Measurements reported in patent US20090118135A1, “METHODS AND COMPOUNDS FOR REGULATING APOPTOSIS” (The Burnham Institute, priority 2007, published 2009).

Legend:
GST-Bcl-B = target: T1, GST-Bcl-B (Homo sapiens, UniProt Q9HD36); experiment: Bcl-B/FITC-TR3-r8 fluorescence polarization competition (displacement) assay, HTS and dose-response
T1 sequence (Q9HD36 1-182 limits assumed): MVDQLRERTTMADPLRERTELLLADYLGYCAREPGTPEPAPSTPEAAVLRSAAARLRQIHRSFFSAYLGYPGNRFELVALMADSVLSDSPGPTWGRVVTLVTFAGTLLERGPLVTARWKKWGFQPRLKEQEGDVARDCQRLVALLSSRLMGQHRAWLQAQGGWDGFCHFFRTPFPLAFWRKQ

GST-Bfl-1 = target: T2, GST-Bfl-1 (Homo sapiens, UniProt Q16548); experiment: Bfl-1/FITC-Bid BH3 competitive fluorescence polarization assay; assay type: binding
T2 construct: lacking their C-terminal transmembrane domains (about the last 20 amino acids) (“ΔTM”); made in house; host or cells: XL-1 Blue E. coli, pGEX 4T-1
T2 sequence (Q16548 1-155 limits assumed): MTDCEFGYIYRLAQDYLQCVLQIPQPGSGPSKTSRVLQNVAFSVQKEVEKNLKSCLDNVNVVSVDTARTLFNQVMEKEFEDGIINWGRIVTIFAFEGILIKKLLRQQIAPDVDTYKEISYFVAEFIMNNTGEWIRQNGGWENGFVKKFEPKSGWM
Protocol: A FPA was performed to determine the binding affinity of FITC-Bid BH3 peptide to Bcl-2 proteins. Serial concentrations of Bcl-2 proteins were incubated with 5 nM FITC-Bid BH3 peptide (FITC-Ahx-[…]; SEQ ID NO: 55) in PBS using a 96 well black plate (Greiner bio-one). […] IC50 determinations were performed using GraphPad Prism software (GraphPad, Inc., San Diego, Calif.). FPA competition assays were performed using the same procedure described above, except that 100 nM of GST-Bfl-1 protein in a volume of 45 μl was incubated with 5 μl (50 μM) test compounds in DMSO per well for 30 min prior to addition of 50 μl (5 nM) FITC-Bid BH3 peptide. The final DMSO concentration was 5% when the reactions brought to fall volume of 100 μl. Fluorescence polarization was measured after 10 min. Compounds that reduced the fluorescence polarization by 50% were considered hits.

Row | SMILES | Is Hit (GST-Bcl-B) | inhibition at 0.02 µM (GST-Bcl-B; read-out: Result Value (Result Type % Inhibition), BCL-b/TR3) [%] | % Activity (GST-Bfl-1) [%] | FRatio (GST-Bfl-1)
1 | COc1ccc2c(c1)c1c(C)c3cnccc3c(C)c1n2CCCN.Cl [Compound 176327] | Yes | 107 | – | –
2 | O=C(OC1CCCCC1)c1ccc2c(c1)C1C=CCC1C(C(=O)O)N2 (stereo not shown) [Compound 4249621] | – | – | 78.5 | 0.38
